# AlphaSeq binding of Ab-91 heavy chain variants to a spike HR2 peptide

Target peptide (SARS-CoV-2 spike, HR2 region): PDVDLGDISGINAS

Ab-91 is the parent antibody, in scFv form: VL, then the linker GGGGSGGGGSGGGGS, then VH. The light chain is unchanged in all variants.
VL: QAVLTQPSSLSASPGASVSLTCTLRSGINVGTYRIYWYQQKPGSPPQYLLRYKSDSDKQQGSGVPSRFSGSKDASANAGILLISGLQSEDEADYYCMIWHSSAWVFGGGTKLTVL
VH: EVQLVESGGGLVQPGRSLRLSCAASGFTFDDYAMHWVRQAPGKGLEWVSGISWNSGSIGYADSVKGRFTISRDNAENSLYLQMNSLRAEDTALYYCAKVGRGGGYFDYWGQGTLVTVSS

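Phage display of a naive human antibody library on the peptide gave the parent. In library AAYL51, one, two or three CDR residues were substituted; doubles and triples were drawn at random. Affinity was read by AlphaSeq, a pooled yeast mating assay with surface-displayed partners. Binding brings cells together so that they mate, and sequencing counts the barcode pairs among the diploids. Scores were corrected for input abundance and mapped to Kd with protein pairs of known affinity run in the same pool. Mating was done three times.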

Changes read parent residue, position, new residue, counted from the first residue of the VH shown.
Affinities are written as log10 Kd with Kd in nM; a lower number is a better binder.
"ND" means that the variant was in the library but no mating with the target was seen in that replicate; the authors take this as a sign of poor binding, and no number exists.
For reference, the parent read 1.86 as the reference entry and 0.88 as a member of this library.
As a blank, each scFv also met three strains without target: over library AAYL51, 21% of these pairings were detected, typically at 4.54 and seldom below 3.26. For each scFv, signals with the empty controls are counted beside the result, with their mean in brackets.

| changes | replicates, log10 nM | empty controls |
|---|---|---|
| F27S+I58H+G59F | ND ND ND | 0/9 |
| G26D+F27I+Y108M | ND ND ND | 0/9 |
| G50C+G56L+A61P | ND ND ND | 2/9 (3.41) |
| G26W+F27P+S63Y | 4.64 ND ND | 2/9 (4.45) |
| G26D+H35V | 1.52 1.35 1.31 | 3/9 (4.80) |
| I51K+Y60W+K65L | 3.41 ND ND | 2/9 (3.81) |
| T28H+Y60P+Y105V | ND ND ND | 0/9 |
| S57P+G102K | ND ND ND | 0/9 |
| G26D+S57G+Y105V | 4.32 4.18 5.27 | 7/9 (4.81) |
| D107S+Y108N | 1.37 1.29 1.12 | 3/9 (4.89) |
| G59P+K65V+F106E | ND ND ND | 0/9 |
| Y32M+V64P | ND 4.97 ND | 1/9 (3.87) |
| N54W+A61P+G102F | ND ND 4.22 | 3/9 (3.81) |
| G26T+D30A+G59I | ND ND ND | 0/9 |
| D30Q+I51N+R101I | 4.30 5.18 ND | 1/9 (4.88) |
| S55N+G100I+Y108F | ND ND ND | 1/9 (3.68) |
| F29D+G50K+F106W | ND ND ND | 0/9 |
| S55G+S63F+G102P | ND ND ND | 0/9 |
| D31L+Y60R+D62F | 5.86 4.28 ND | 3/9 (4.39) |
| G26M+F29A+Y108K | 4.03 ND ND | 3/9 (4.91) |
| G50C+K65L+D107H | 3.50 5.78 ND | 0/9 |
| G50W+R101H+F106Q | ND ND ND | 1/9 (4.16) |
| T28M+F106G | ND ND ND | 0/9 |
| G26V+W53P+G59L | ND 3.76 4.37 | 0/9 |
| G59W+G100I+Y105V | 4.73 5.31 ND | 5/9 (4.69) |
| S52F+N54A+G100T | ND ND 3.96 | 2/9 (5.01) |
| G26W+Y32V+S57R | 5.42 4.35 5.26 | 4/9 (4.61) |
| W53R+D62R+G104L | ND 3.54 ND | 1/9 (4.49) |
| S52E+G59M+G102Q | 4.94 5.80 5.17 | 6/9 (4.68) |
| G26L+A61N | ND ND ND | 0/9 |
| F29E+D31T+F106G | 4.51 5.35 ND | 3/9 (4.62) |
| D62K | 3.17 ND ND | 4/9 (3.79) |
| A61I+Y105N+Y108P | 3.67 ND 2.83 | 0/9 |
| K65I+Y105W | ND ND ND | 0/9 |
| D31S+D62K+Y105H | ND ND ND | 0/9 |
| G50R+W53Q+Y105M | 4.76 5.14 4.96 | 6/9 (5.08) |
| M34W+S52C+D62K | ND ND ND | 0/9 |

The closing 4 entries, repeated:

| changes | replicates, log10 nM | empty controls |
|---|---|---|
| K65I+Y105W | ND ND ND | 0/9 |
| D31S+D62K+Y105H | ND ND ND | 0/9 |
| G50R+W53Q+Y105M | 4.76 5.14 4.96 | 6/9 (5.08) |
| M34W+S52C+D62K | ND ND ND | 0/9 |

Values reported by Engelhart et al. 2022, doi:10.1038/s41597-022-01779-4 (FLAb copy).